Measurements as given in US20180022780A1, “STABILIZATION ADRENOMEDULLIN DERIVATIVES AND USE THEREOF” (priority 2014, published 2018).

Target: CLR fused to EYFP with RAMP2 fused to ECFP
Experiment: cell-based or functional assay

Work on “Wild type adrenomedullin (from UniProt P35318 95-146) (ligand)” yielded an EC50 [nM], cAMP assay (CRE-luciferase luminescence, HEK293 cells) of 1.7 nM.
